Experimental data taken from paper PMC9413390 (Molecules, 2022).

Sequences of proteins named here, by UniProt entry; tags and fusion partners are left off.
UniProt P33535, whole entry: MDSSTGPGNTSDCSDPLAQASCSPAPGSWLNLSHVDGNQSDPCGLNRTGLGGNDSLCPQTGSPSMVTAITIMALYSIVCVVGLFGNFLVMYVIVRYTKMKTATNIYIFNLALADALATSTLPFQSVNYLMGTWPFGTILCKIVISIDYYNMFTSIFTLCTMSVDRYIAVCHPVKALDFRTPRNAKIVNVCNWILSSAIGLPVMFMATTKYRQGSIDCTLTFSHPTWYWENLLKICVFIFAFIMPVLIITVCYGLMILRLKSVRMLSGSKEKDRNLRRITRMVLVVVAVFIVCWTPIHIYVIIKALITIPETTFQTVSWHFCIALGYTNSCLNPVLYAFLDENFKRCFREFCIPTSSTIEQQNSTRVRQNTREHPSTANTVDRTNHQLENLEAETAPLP

Target: T1, MOR (Rattus norvegicus, UniProt P33535)
T1 construct: from tissue; host or cells: brain membranes of male Sprague-Dawley rats
Assay: MOR radioligand binding assay ([3H]-DAMGO, rat brain membranes)

**Q.** `C[C@@H](NC(=O)[C@@H](N)Cc1ccc(O)cc1)C(=O)NCC(=O)N(C)[C@@H](Cc1ccccc1)C(=O)NCCO` [[^3H]DAMGO, reference compound] was tested. Which Kd did it give?
**A.** 1 nM
